Results on 1 compound are retold here after US10434181B2, “Oligomer-containing benzamide-based compounds” (Nektar Therapeutics, priority 2012, dated 2019).

By UniProt entry, the sequences of proteins in these tests, tags left out.
UniProt Q13639, whole entry, species assumed: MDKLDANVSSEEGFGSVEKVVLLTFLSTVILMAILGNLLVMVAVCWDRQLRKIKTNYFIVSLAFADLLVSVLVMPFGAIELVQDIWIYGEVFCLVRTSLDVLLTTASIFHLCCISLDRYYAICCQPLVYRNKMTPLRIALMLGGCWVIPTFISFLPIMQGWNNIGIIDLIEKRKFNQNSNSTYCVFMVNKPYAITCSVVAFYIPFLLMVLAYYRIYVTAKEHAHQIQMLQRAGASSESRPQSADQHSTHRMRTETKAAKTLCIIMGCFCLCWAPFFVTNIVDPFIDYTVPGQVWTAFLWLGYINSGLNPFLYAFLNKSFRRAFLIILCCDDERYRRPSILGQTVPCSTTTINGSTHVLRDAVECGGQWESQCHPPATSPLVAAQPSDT

Assay [1] deals with serotonin 4 receptor (5HT4) (Homo sapiens, UniProt Q13639). Put plainly: cAMP accumulation assay (serotonin 4 receptors). The note with it: CHO-K1 cells stably expressing 5HT4. For orientation: cAMP levels reflect the balance of adenylyl cyclase and phosphodiesterase activity.
Assay [2] concerns the target 5HT4B receptors (serotonin 4B receptors) (Homo sapiens, UniProt Q13639). Put plainly: Competition binding assay (serotonin 4B receptors), [3H]GR113808. The note with it: [3H]GR113808 competition, HEK 293 membranes expressing 5HT4B.

Structures are written as SMILES.

For orientation: IC50 means the concentration that gives 50% inhibition. Read a high IC50 as weaker potency.

As for `CCN(CC)CCNC(=O)c1cc(Cl)c(N)cc1OC` [Metoclopramide, N-(2-diethylaminoethyl)-2-methoxy-4-amino-5-chlorobenzamide, reference compound], the IC50 in assay [1] (IC50 [M]) amounted to 1.02e-06 M; in assay [1] (IC50 [μM]) it was 1.02e-06 M; in assay [2] (IC50 [M]) it was 1.52e-05 M; in assay [2] (IC50 [nM]) it was 1.52e-05 M.
